Experimental data published in patent publication US11517645B2, “Bone-tendon graft biomaterial, use as a medical device and method of making same” (The Board of Trustees of the Leland Stanford Junior …, priority 2016, dated 2022).

How the values were obtained:
C2C12 cells [1] = assay: ALP staining, C2C12 on BMP-2-biopatterned fibrin-coated QHM polymers; assay type: cell-based, mouse; details: fibrin-coated QHM polymers in vitro, 6 days
Description: QHM polymer samples were double-coated with fibrin as previously described with minor modifications^18,19,29-32,48-50. Briefly, QHM polymer samples were incubated with 1 mg/mL fibrinogen (Enzyme Research Laboratories, South Bend, Ind.) in 10 mM sodium phosphate, pH 7.4 (Thermo Fisher Scientific, Waltham, Mass.) overnight. The following day, QHM polymer samples were washed with phosphate-buffered saline (PBS; Life Technologies, Carlsbad, Calif.) to remove unbound fibrinogen and fibrin-coated via incubation with 4 U/mL thrombin (Enzyme Research Laboratories, South Bend, Ind.) for 2 h at 37° C. […] Fibrin-coating was monitored using Alexa Fluor®-conjugated fibrinogen (Life Technologies, Carlsbad, Calif.) on QHM polymer samples (circular discs approximately 1 cm in diameter). Fluorescence images were acquired on an inverted Zeiss AxioObserver Z1 microscope (Carl Zeiss Microimaging, Thornwood, N.Y.) equipped with an X-Cite® Series 120Q metal halide lamp, appropriate filters and an AxioCam MRm camera (Carl Zeiss Microimaging, Thornwood, N.Y.). […]
At designated time points, cells were fixed for 1 min in 3.7% formaldehyde and samples were incubated with ALP stain for 1 h. […] Where required, the ALP-stained images were quantified by calculating the average pixel intensity in Adobe Photoshop 7.0 as previously described^18,19.

C57BL-6J mice = assay: Mouse subcutaneous implantation of growth factor-biopatterned QHM grafts; assay type: in vivo; details: 3 μg patterned on fibrin-coated QHM polymer, 14 days subcutaneous
Description: Mouse subcutaneous surgeries were performed in accordance with the guidelines established by Stanford University's Administrative Panel on Laboratory Animal Care. Wild-type C57BL-6J mice (Charles River Laboratories, Wilmington, Mass.) between 8 and 12 weeks of age (20-30 g) were used in this study. All mice were maintained in the Stanford Animal Facility, with a 12:12 h light-dark cycle and free access to standard laboratory food and water. Mice were anesthetized by inhalation with isoflurane (4% for induction, 2% for maintenance, Abbott Laboratories, Chicago) as well as administered 0.05 mg/kg Buprenorphine (Hospira Inc., Lake Forest, Ill.) and 25 mg/kg Cefazolin (Thermo Fisher Scientific, Waltham, Mass.) as an analgesic and anti-infective, respectively. Grafts (Square specimens 6×6×1 mm) were comprised of 0 s UV and 300 s UV QHM polymer regions (each measuring 3×3×1 mm) biopatterned with 1) no growth factor, 2) 3 μg FGF-2 on 0 s UV QHM polymer region and 3 μg BMP-2 on 300 s UV QHM polymer region or 3) 3 μg GDF-7 on 0 s UV QHM polymer region and 3 μg BMP-2 on 300 s UV QHM polymer region. Under sterile conditions, a 2.5 cm skin incision was made and grafts were sutured subcutaneously to the skin using 3-0 Nylon sutures (Oasis, Med-Vet International, Mettawa, Ill.) in a bilateral manner. Subsequently, the skin was re-approximated and closed with 3-0 Nylon sutures. […]

C2C12 cells [2] = assay: ALP staining, C2C12 osteoblast differentiation on QHM polymers with BMP-2 in media; assay type: cell-based, mouse
Description: ALP activity was detected according to the manufacturer's instructions (Sigma Aldrich, St. Louis, Mo.) as previously described with minor modifications^18,19.
For studies on the effect of Young's moduli on osteoblast differentiation (using uniform QHM polymer samples), C2C12 cells were seeded into 24 well plates containing uncoated QHM polymer samples (circular discs approximately 1 cm in diameter) at a density of 7.47×10^4 cells per cm^2 overnight in DMEM, 10% FBS and 1% PS media. The following day (Day 0), the media were changed to DMEM, 10% FBS, 1% PS, 100 ng/mL BMP-2 and 0.3% DMSO (With BMP-2 and DMSO) or DMEM, 10% FBS, 1% PS, 100 ng/mL BMP-2 and 25 μM blebbistatin (Selleck Chemicals, Houston, Tex.; With BMP-2 and blebbistatin). Media were changed every 48 h. ALP staining was performed at 4, 8 and 14 days. ALP inhibitory index was defined as the ratio of ALP activity for blebbistain-treated cells to DMSO-treated cells—a value of 1.0 indicated no inhibition while a value of 0.0 indicated complete inhibition.
For studies on the effect of Young's moduli on osteoblast differentiation (using 0 s:300 s UV mechanically-graded QHM polymer samples), C2C12 cells were seeded into 24 well plates containing uncoated QHM polymer samples (rectangular specimens measuring approximately 0.5 cm×1 cm) at a density of 7.47×10^4 cells per cm^2 overnight in DMEM, 10% FBS and 1% PS media. The following day (Day 0), the media were changed to DMEM, 10% FBS, 1% PS, 100 ng/mL BMP-2. Media were changed every 48 h. ALP staining were performed at 3 days post-seeding.
At designated time points, cells were fixed for 1 min in 3.7% formaldehyde and samples were incubated with ALP stain for 1 h. Color images of samples were acquired using an inverted Zeiss AxioObserver Z1 microscope equipped with an AxioCam ICC color camera and a Nikon D70 Digital camera (Nikon Corp., Tokyo, Japan). Where required, the ALP-stained images were quantified by calculating the average pixel intensity in Adobe Photoshop 7.0 as previously described^18,19.

[3] = 200 ng/mL versus 100 ng/mL, 4 days

B1: BMP-2: Recombinant human bone morphogenetic protein-2 (Medtronic), bone-promoting cue (protein, UniProt P12643 283-396, looked up)
Bone morphogenetic protein 2: QAKHKQRKRLKSSCKRHPLYVDFSDVGWNDWIVAPPGYHAFYCHGECPFPLADHLNSTNHAIVQTLVNSVNSKIPKACCVPTELSAISMLYLDENEKVVLKNYQDMVVEGCGCR
- C2C12 ALP activity on BMP-2 patterns relative to off pattern controls (C2C12 cells [1]): largely increased
- Tissue formed on growth factor pattern in vivo (C57BL-6J mice): reminiscent of immature bone
- Effect of increased BMP-2 dose on ALP activity, cells on QHM polymers (C2C12 cells [2]; [3]): increased the ALP activity
- Effect of increased BMP-2 dose on ALP activity, cells on TCPS (C2C12 cells [2]; [3]): had no effect
- Effect of increased BMP-2 administration on ALP activity, cells on QHM polymers subjected to longer UV-exposure (C2C12 cells [2]; 6 days versus 4 days BMP-2): increased the ALP activity
- Effect of increased BMP-2 administration on ALP activity, cells on TCPS (C2C12 cells [2]; 6 days versus 4 days BMP-2): had no effect
